This note sets out measurements from patent publication US20230212549A1, “COMPOUNDS COMPRISING A […] LIGAND AND USE THEREOF” (priority 2021, published 2023).

Protein sequences, listed by entry. Tags and fused reporters are not part of them. Lines headed by an entry give the natural chain unless they say otherwise; changes in a name come on top. Residues count along the entry.
UniProt O75604, 259-605 limits assumed: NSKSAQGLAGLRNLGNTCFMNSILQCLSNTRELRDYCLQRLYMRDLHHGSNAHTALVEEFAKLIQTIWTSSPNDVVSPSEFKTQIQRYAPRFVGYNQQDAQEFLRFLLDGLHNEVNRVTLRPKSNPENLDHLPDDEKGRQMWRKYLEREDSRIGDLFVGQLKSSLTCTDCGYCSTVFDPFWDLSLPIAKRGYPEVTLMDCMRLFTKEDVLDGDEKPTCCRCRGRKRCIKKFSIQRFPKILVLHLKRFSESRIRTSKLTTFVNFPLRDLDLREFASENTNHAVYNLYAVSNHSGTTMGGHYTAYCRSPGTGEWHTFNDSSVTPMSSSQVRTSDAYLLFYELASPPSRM
UniProt P45974: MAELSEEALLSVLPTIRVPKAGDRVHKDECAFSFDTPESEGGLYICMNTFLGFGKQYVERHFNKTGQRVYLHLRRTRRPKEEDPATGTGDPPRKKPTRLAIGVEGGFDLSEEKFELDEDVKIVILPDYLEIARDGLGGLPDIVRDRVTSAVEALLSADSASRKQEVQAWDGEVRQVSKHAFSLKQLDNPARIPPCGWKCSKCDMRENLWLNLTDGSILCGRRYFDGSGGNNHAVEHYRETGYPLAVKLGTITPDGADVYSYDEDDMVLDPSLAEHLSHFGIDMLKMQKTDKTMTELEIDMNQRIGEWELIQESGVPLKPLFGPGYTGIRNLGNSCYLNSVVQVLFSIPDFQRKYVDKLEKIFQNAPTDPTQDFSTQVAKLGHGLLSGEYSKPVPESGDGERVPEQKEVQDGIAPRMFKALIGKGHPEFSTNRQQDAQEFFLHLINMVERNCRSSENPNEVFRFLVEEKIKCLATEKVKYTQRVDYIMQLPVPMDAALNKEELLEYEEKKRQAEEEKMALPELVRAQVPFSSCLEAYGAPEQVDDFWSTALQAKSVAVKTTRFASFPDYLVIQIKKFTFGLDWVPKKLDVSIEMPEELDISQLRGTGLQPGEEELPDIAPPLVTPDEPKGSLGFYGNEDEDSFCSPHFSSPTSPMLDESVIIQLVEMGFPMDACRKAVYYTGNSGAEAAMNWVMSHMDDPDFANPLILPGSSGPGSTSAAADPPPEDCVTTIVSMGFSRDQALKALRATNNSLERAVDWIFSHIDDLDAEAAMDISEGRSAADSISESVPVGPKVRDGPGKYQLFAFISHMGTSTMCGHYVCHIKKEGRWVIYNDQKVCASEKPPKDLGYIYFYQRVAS
UniProt P40818: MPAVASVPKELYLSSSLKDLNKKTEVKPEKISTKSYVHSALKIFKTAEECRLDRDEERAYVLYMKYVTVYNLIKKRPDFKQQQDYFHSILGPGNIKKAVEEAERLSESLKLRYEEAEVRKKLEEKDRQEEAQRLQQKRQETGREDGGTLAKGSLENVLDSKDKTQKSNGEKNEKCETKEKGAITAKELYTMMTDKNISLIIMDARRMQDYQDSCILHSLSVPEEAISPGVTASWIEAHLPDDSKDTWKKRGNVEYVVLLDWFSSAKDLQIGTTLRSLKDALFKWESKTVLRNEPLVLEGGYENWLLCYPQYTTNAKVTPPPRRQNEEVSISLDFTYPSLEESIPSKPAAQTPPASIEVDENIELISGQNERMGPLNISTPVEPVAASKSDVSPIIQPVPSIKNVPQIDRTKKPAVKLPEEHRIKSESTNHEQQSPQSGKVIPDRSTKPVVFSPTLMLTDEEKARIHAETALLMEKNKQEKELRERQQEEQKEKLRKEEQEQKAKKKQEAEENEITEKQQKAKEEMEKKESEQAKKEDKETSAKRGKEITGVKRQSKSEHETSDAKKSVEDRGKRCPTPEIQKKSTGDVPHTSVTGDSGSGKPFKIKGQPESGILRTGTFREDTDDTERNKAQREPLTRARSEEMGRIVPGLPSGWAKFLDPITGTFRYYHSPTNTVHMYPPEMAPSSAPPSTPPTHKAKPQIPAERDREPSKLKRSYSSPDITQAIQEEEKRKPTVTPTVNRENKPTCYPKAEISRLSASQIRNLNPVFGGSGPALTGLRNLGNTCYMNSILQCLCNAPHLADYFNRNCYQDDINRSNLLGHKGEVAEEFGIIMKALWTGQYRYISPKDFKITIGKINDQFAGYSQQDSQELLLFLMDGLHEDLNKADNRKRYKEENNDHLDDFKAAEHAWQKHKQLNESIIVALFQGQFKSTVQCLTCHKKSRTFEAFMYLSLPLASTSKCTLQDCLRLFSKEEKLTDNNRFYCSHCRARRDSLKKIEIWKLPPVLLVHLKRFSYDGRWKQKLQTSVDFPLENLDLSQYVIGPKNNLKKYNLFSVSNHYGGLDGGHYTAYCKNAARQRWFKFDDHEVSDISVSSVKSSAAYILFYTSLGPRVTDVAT

Holding throughout (test): cell-based or functional assay
Experiment [1] has as its target Ubiquitin carboxyl-terminal hydrolase 2 (UniProt O75604).
Experiment [2] deals with Ubiquitin carboxyl-terminal hydrolase 5 (UniProt P45974).
Experiment [3] addresses Ubiquitin carboxyl-terminal hydrolase 8 (UniProt P40818).

Consider Ub-Aldehyde (from UniProt P0CG48 1-76), for which the Percentage inhibition (%), reference at 1 µM in experiment [1] is 91%; in experiment [2], 84%; in experiment [3], 73%.
